This assay deals with T1, human LTA4 hydrolase (Homo sapiens, UniProt P09960).
T1 construct: A human LTA4 hydrolase full-length cDNA clone (NM 000895) was purchased; His tag (6xHis of vector pDEST17); made in house; host or cells: Escherichia coli BL21-AI
T1 sequence (P09960 1-611): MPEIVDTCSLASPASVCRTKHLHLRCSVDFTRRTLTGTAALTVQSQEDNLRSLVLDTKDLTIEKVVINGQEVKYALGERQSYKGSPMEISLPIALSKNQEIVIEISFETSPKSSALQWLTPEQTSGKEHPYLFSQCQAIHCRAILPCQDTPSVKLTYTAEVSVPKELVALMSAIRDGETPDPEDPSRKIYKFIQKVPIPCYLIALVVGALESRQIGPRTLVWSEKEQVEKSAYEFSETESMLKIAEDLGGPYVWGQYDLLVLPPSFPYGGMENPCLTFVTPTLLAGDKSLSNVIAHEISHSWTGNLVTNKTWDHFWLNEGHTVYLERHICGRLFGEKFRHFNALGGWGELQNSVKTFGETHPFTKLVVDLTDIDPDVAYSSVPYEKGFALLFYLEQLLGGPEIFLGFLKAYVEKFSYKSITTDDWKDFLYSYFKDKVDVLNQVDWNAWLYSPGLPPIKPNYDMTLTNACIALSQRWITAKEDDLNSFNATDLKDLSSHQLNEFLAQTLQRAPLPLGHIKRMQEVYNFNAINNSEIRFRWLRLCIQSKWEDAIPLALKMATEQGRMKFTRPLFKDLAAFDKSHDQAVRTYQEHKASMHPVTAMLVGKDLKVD
Kind of assay: In vitro assay testing inhibitory activity against purified recombinant human LTA4 hydrolase (LTB4 formed, LC-MS/MS).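 Further: 200 nM enzyme preincubated 10 min at room temperature with serial inhibitor dilutions in pH 8.0 Tris buffer with BSA and 10% DMSO, then 2 µM LTA4 added.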 Type of assay: biochemical. The note with it: recombinant human LTA4 hydrolase 200 nM, LTA4 2 μM; read-out: AvgIC50.

As to “(S)-2-[4-(2-thiophen-benzyl)-phenoxymethyl]-pyrrolidine hydrogen chloride salt [Example 117]”, the IC50 is below 5 µM.

The record behind these values is US20070078263A1, “BIARYL SUBSTITUTED HETEROCYCLE INHIBITORS OF LTA4H FOR TREATING INFLAMMATION” (deCODE Chemistry, Inc., priority 2005, published 2007).
